Experimental data as given in ChEMBL document CHEMBL4800727 (2021).
The source made the active and inactive calls. The calls are words filed in the database; no cut-off is given here.

Molecular target: T1, cAMP and cAMP-inhibited cGMP 3',5'-cyclic phosphodiesterase 10A (Rattus norvegicus, UniProt Q9QYJ6)
T1 sequence (Q9QYJ6 whole entry): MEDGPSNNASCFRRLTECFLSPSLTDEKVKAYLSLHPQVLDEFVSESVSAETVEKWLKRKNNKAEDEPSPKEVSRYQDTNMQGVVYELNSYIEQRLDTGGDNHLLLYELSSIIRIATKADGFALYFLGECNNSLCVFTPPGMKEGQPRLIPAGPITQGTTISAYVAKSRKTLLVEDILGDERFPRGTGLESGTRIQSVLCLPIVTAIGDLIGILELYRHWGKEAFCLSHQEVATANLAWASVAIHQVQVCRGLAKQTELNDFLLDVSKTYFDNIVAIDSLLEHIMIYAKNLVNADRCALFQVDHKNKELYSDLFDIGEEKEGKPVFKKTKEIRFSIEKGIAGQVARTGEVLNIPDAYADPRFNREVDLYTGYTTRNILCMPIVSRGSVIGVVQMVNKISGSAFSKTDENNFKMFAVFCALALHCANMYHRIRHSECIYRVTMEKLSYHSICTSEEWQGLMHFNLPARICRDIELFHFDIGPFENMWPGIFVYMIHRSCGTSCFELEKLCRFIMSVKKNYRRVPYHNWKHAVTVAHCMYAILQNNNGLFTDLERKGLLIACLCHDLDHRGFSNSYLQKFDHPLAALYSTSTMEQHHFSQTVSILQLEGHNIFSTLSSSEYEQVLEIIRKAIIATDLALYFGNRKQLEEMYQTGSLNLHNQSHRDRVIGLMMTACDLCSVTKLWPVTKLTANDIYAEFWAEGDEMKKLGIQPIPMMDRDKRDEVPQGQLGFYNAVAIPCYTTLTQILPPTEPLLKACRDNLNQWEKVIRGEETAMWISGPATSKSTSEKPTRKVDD
Assay: SPA with rat PDE10A

COCCc1ccc(-c2c(C)nc3c(N4CCOCC4)ccnn23)cn1 [JNJ-42396302]
Ki: active: 19 nM
